Reference: article PMC4201977 (Journal of immunology (Baltimore, Md. : 1950), 2014)

Key:
[1] = 2 nmol 13-QY9-6 in 45μg mMP CL097 extract, after 10 minutes, mass spectrometry
[2] = 2 nmol 13-QY9-6 in 45μg mDC CL097 extract, after 10 minutes, mass spectrometry

For `CSCC[C@H](NC(=O)[C@@H]1CCCN1C(=O)[C@H](CCCNC(=N)N)NC(=O)[C@H](CC(C)C)NC(=O)[C@@H]1CCCN1C(=O)[C@@H](NC(=O)[C@H](CCC(N)=O)NC(=O)[C@@H]1CCCN1C(=O)[C@@H](NC(=O)[C@@H](NC(=O)[C@@H]1CCCN1C(=O)[C@H](Cc1ccccc1)NC(=O)CNC(=O)[C@@H](NC(=O)[C@H](CCC(=O)O)NC(=O)[C@H](CCC(=O)O)NC(=O)[C@H](CCC(=O)O)NC(=O)[C@H](CCC(=O)O)NC(=O)[C@H](CCC(N)=O)NC(=O)[C@H](C)N)C(C)C)C(C)C)[C@@H](C)O)C(C)C)C(=O)N[C@H](C(=O)N[C@@H](Cc1ccc(O)cc1)C(=O)N[C@@H](CCCCN)C(=O)N[C@@H](C)C(=O)N[C@@H](C)C(=O)N[C@H](C(=O)N[C@@H](CC(=O)O)C(=O)N[C@@H](CC(C)C)C(=O)O)C(C)C)[C@@H](C)O` [13-QY9-6], the “contribution of peptides longer than 26aa to total peak intensity” value [1] was 85% and the “contribution of peptides longer than 26aa to total peak intensity” value [2] was 85%.

Where two headings read alike, the source gives them in different places.
